Results on two compounds are retold here after BindingDB's records for 19269822 (Universita Degli Studi Di Firenze, 2009).

By UniProt entry, the sequences of proteins in these tests, tags left out. Where a name states a change or a piece, a line headed by the entry shows the natural chain unless it says otherwise. Residues count along the entry.
UniProt Q9D6N1: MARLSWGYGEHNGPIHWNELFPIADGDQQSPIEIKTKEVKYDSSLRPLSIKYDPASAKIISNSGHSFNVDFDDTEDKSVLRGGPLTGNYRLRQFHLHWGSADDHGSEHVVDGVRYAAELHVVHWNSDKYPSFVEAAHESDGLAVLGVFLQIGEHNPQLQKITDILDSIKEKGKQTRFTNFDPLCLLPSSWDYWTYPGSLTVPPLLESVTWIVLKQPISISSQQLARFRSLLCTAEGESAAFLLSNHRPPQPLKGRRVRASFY
UniProt P22748, 19-284 limits assumed: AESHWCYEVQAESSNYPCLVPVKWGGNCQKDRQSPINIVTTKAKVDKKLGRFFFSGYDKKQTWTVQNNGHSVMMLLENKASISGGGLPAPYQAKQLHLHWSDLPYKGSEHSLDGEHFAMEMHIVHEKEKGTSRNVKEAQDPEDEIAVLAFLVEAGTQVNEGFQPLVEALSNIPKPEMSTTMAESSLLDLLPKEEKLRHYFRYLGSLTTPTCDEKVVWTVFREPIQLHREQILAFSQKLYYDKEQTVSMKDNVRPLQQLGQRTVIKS
UniProt P43166: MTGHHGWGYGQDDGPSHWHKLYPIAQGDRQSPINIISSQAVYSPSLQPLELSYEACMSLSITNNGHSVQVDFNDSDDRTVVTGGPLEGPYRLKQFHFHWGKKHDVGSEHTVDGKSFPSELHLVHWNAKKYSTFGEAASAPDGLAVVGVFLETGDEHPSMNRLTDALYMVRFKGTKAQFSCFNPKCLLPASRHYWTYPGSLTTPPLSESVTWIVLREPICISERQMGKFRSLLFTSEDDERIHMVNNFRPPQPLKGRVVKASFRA

One assay concerns the target Carbonic anhydrase 13 (Mus musculus, UniProt Q9D6N1). Description: Inhibition of mouse recombinant carbonic anhydrase 13-catalyzed CO2 hydration by stopped flow assay.
Another assay deals with Carbonic anhydrase 4 (Homo sapiens, UniProt P22748). Description: Inhibition of human recombinant carbonic anhydrase 4-catalyzed CO2 hydration by stopped flow assay.
The next assay concerns the target Carbonic anhydrase 7 (Homo sapiens, UniProt P43166). Description: Inhibition of human recombinant carbonic anhydrase 7-catalyzed CO2 hydration by stopped flow assay.

Usually Ki stands for the equilibrium dissociation constant of an inhibitor or competing ligand from its target. `O=S(=O)(O)F`: the Ki on Carbonic anhydrase 13 was determined as 61800 µM; on Carbonic anhydrase 4, 39700 µM; on Carbonic anhydrase 7 it was 1310 µM.

As to `[O]=[V]([OH])([OH])[O][V](=[O])([OH])[OH]`, the values for the Ki on Carbonic anhydrase 13, at Carbonic anhydrase 4 and at Carbonic anhydrase 7 were 390 µM, 290 µM and 600 µM, respectively.
